Source: patent US6768024B1, “Triamine derivative melanocortin receptor ligands and methods of using same” (Lion Bioscience AG, priority 2000, dated 2004)

Chains of the proteins cited; added tags and fusions are not shown.
UniProt P33032, whole entry: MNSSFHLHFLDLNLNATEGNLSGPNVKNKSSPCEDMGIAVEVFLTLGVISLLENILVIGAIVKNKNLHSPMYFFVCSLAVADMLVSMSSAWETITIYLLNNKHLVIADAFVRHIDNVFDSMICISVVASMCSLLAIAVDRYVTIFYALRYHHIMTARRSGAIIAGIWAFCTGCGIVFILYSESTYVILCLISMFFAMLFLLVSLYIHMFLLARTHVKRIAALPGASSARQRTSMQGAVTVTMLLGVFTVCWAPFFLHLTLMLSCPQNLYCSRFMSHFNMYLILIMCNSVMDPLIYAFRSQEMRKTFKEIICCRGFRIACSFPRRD
UniProt Q01726, whole entry: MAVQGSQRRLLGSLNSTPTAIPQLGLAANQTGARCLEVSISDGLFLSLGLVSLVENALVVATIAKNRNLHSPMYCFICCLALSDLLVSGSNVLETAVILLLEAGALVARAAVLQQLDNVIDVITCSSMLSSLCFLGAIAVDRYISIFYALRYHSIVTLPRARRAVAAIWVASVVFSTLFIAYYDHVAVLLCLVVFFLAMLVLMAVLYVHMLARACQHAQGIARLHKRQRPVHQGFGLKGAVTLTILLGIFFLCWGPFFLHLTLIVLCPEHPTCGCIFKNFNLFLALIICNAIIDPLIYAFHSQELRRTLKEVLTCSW
UniProt P41968, whole entry: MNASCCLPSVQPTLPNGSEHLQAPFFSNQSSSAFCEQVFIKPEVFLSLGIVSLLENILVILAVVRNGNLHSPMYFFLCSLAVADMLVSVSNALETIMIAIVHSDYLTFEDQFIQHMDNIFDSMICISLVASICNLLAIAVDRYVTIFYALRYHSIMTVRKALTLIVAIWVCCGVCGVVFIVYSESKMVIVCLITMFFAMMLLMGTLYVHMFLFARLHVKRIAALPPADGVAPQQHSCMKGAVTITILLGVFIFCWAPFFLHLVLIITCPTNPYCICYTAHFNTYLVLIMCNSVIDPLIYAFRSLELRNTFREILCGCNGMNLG
UniProt P32245, whole entry: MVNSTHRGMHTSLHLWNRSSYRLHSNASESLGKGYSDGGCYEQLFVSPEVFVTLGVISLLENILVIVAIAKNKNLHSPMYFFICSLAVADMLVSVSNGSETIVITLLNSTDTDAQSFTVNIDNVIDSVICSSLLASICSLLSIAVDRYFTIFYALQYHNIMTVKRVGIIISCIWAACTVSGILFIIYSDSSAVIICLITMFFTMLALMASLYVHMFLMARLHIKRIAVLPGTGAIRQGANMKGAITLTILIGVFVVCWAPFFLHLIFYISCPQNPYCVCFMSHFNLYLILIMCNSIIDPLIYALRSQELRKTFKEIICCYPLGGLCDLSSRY

What was measured:
[1] = biological target: hMC-5 (Homo sapiens, UniProt P33032); experiment: Melanocortin receptor binding assay, competition with 125I-HP 467; conditions: for IC50: read-out: MC-5 IC50, 50% inhibition of binding of 125I-HP 467, HEK-293 membranes
Source text: (§1) HEK-293 cell lines were transfected with the human melanocortin receptors hMC1, hMC3, and hMC4 were obtained from Dr. Ira Gantz, as described in Gantz, I. et al., Biochem. Biophys. Res. Comm., 3:1214-1220 (1994); Gantz et al., J. Biol. Chem., 268:8246-8250 (1993); Gantz et al., J. Biol. Chem., 268:15174-15179 (1993); and Haskell-Leuvano et al., Biochem. Biophys. Res. Comm., 204:1137-1142 (1994).
(§2) Vectors for construction of an hMC-5 expressing cell line were also obtained from Dr. Ira Gantz, as described in the above references, and a line of HEK-293 cells expressing hMC-5 was constructed. HEK-293 cell lines were maintained in DMEM containing 25 mM HEPES, sodium pyruvate, 10% Cosmic Calf serum, 100 units/ml penicillin, 100 μg/ml streptomycin, 2 mM glutamine, non-essential amino acids, vitamins and 0.2 mg/ml G418 to maintain selection.
(§3) HEK-293 cells stably expressing the MC Receptors were grown to confluency in 175 cm^2 flasks. 3 flasks were washed in 30 ml room temperature phosphate buffered saline (Cellgro) per flask, and harvested using a rubber scraper in 5 ml ice-cold PBS per flask. The cells were combined into one test tube, homogenized using a Polytron homogenizer (3 bursts of 10 seconds) and centrifuged at 32,000× g for 20 min at 4° C.
(§4) Membranes were washed as follows: the pellet obtained after centrifugation was resuspended in 20 ml ice-cold hypotonic buffer, (20 mM Tris-HCl, 5 mM EDTA, pH 7.7 at 4° C.), dispersed using a 8 strokes in a teflon/glass homogenizer and recentrifuged as decribed above. The final pellet was resuspended in 3 ml ice cold suspension buffer (20 mM HEPES, 10 mM NaCl, 1.26 mM CaCl2, 0.81 mM MgSO4, 0.22 mM KH2PO4, 10% w/v Sucrose, pH 7.4), giving a protein concentration of approx. 2 mg/ml. Protein concentration was measured by a BCA assay (Pierce), using bovine serum albumin as standard. The crude membrane preparation was aliquoted, flash-frozen in liquid nitrogen and stored at −80° C.
(§5) Before use in assays, each membrane preparation was tested and the protein concentration to give 3000 counts of total binding is determined. Typically, 6 μg/ml for MC-1, 1.5 μg/ml for MC-3, 1.5 μg/ml for MC-4, and 1 μg/ml for MC-5 give 3000 counts in the assay.
(§6) Binding assays were performed in a total volume of 250 μl. Triamines and other compounds were dissolved in DMSO and diluted in PBS to give no more than 2.5% DMSO (0.25% final in the assay), and 25 μl of test compound is added to each tube. 50,000 dpm of ^125I labeled HP 467 (Ac-Nle-Gln-His-(p(I)-D-Phe)-Arg-(D-Trp)-Gly-NH2, with the iodo group radioactively labeled; see WO 99/21571)(in 25 μl) prepared in 50 mM Tris pH 7.4, 2 mg/ml BSA, 10 mM CaCl2, 5 mM MgCl2, 2 mM EDTA were added to each tube. ^125I-HP 467 was custom labeled by Amersham to a specific activity of 2000 Ci/mmol. Membranes were thawed and resuspended in ice-cold suspension buffer without sucrose at the protein concentration determined above, and 200 μl were added to each tube. Assays were incubated for 90 minutes at room temperature.
(§7) GF/B filter plates (Packard Instrument Co.) were prepared by soaking for at least one hour in 0.5% v/v polyethyleneimine. Assays were filtered using a Brandel 96-well cell harvester. The filters were washed four times with cold 50 mM Tris, pH 7.4. Filter plates were dehydrated for 2 hours and 35 μl of Microscint (Packard Instrument Co.) added to each well. Filter plates were counted using a Packard Topcount and data analyzed in MDL Screen (MDL Information Systems, Inc.).
(§8) Various triamine derivatives were tested for in vitro binding activity to HEK 293 cells expressing MCR-1, MCR-3, MCR-4 or MCR-5 as described in Example II. Tables 1 to 3 above show the IC50 values, the concentration giving 50% inhibition of binding of ^125I-HP 467, for various triamine derivatives.

[2] = biological target: hMC1 (Homo sapiens, UniProt Q01726); experiment: as above; conditions: read-out: MC-1 IC50; 50% inhibition of binding of 125I-HP 467; HEK-293 membranes
Source text: as §1, §2, §3, §4, §5, §6, §7, §8

[3] = biological target: hMC3 (Homo sapiens, UniProt P41968); experiment: as above; conditions: read-out: MC-3 IC50; 50% inhibition of binding of 125I-HP 467; HEK-293 membranes
Source text: as §1, §2, §3, §4, §5, §6, §7, §8

[4] = biological target: hMC4 (Homo sapiens, UniProt P32245); experiment: as above; conditions: 50% inhibition of binding of 125I-HP 467, HEK-293 membranes; for IC50: read-out: MC-4 IC50
Source text: as §1, §2, §3, §4, §5, §6, §7, §8

[5] = biological target: MCR-1 (Homo sapiens, UniProt Q01726); experiment: cAMP assay for melanocortin receptor agonism; conditions: read-out: MC-1 IC50 (Tables 4 and 5; text: EC50); 50% of maximal cAMP production; HEK 293 cells
Procedure: (§9) HEK 293 cells expressing MCR-1, MCR-3, MCR-4 and MCR-5 were used (see Example II). Cells were plated at 20,000 cells per well in a 96-well plate coated with collagen Biocoat (Becton Dickinson). The next day, cells were pretreated with 75 μl of 0.4 mM 3-isobutyl-1-methylxanthine (IBMX) in low serum medium containing DMEM, 25 mM HEPES, non-essential amino acids, vitamins, 100 units/ml penicillin, 100 μg/ml streptomycin and 0.1% COSMIC CALF SERUM. IBMX is an inhibitor of cAMP phosphodiesterase. The pretreatment was carried out for 10 min at 37° C.
(§10) Following pretreatment, 25 μl of diluted triamine derivative was added to the wells, and cells were incubated for 15 min at 37° C. Cells were lysed by adding 25 μl saponin lysis buffer and incubating 2 to 5 min. Plates were covered and stored at −20° C.
(§11) cAMP concentration was determined by ELISA. Briefly, 96 well ELISA plates were coated with goat anti-cAMP antibody (BabCo, Berkeley, Calif.) in PBS for 12 to 72 hr at 4° C. 50 μl of sample was mixed with 50 μl of cAMP ELISA buffer containing 1% bovine serum albumin, 10% heat inactivated donor horse serum, 1% normal mouse serum and 0.05% TWEEN-20 in PBS, and the diluted sample was added to the coated ELISA plate. Standards of known concentrations of cAMP were added to separate wells. 25 μl of 16 ng/ml cAMP-conjugated horse radish peroxidase (HRP) (cAMP-HRP) was added to each well, and the plates were […] at room temperature. Plates were washed and the binding of cAMP-HRP was detected with 3,3′,5,5′-tetramethylbenzidine (TMB) and hydrogen peroxide using standard immunoassay procedures.
(§12) Various triamine derivatives were tested for their ability to activate MC receptor by measuring cAMP as described in Example III. Tables 4 and 5 show the EC50 values, the effective concentration for achieving 50% of maximal cAMP production, for various triamine derivatives administered to HEK 293 cells expressing MCR-1, MCR-3, MCR-4 or MCR-5.

[6] = biological target: MCR-3 (Homo sapiens, UniProt P41968); experiment: cAMP assay for melanocortin receptor agonism; conditions: 50% of maximal cAMP production; HEK 293 cells
Procedure: as §9, §10, §11, §12

[7] = biological target: MCR-4 (Homo sapiens, UniProt P32245); experiment: cAMP assay for melanocortin receptor agonism; conditions: read-out: MC-4 IC50 (Tables 4 and 5; text: EC50); 50% of maximal cAMP production; HEK 293 cells
Procedure: as §9, §10, §11, §12

[8] = biological target: MCR-5 (Homo sapiens, UniProt P33032); experiment: cAMP assay for melanocortin receptor agonism; conditions: read-out: MC-5 IC50 (Tables 4 and 5; text: EC50); 50% of maximal cAMP production; HEK 293 cells
Procedure: as §9, §10, §11, §12

With `N=C(N)NCCC[C@@H](CN)NC[C@H](Cc1ccc(I)cc1)NCCc1cc(F)cc(F)c1` the IC50 [1] was 700 nM, the IC50 [2] was 330 nM and the IC50 [3] was 800 nM. It also gave an IC50 [4] of 1800 nM.

In the case of `CCOc1ccc(C[C@@H](CN[C@H](CN)CCCNC(=N)N)NCCc2ccc(C(F)(F)F)cc2)cc1`, the “specificity for at least one MC receptor over another MC receptor” value ([1]; binding, receptors not given) is reported as “about 10 fold”, the IC50 [1] is reported as 40 nM and the IC50 [2] is reported as 420 nM. The IC50 [3] was 1090 nM and the “MC-4 IC50” value [4] was “No fit”.

For `N=C(N)NCCC[C@@H](CN)NC[C@H](Cc1ccc(I)cc1)NCCc1ccc(Cl)cc1`, the EC50 [5] was 600 nM, the “MC-3 IC50 (Tables 4 and 5; text: EC50)” value [6] was “No fit” and the EC50 [7] was 300 nM. For the same compound, the EC50 [8] was 150 nM.

Compound `CCOc1ccc(C[C@@H](CN[C@H](CN)CCN)NCCc2ccc(Cl)cc2)cc1` has an IC50 [1] of 700 nM, an IC50 [2] of 6350 nM and an IC50 [3] of 2350 nM. The IC50 [4] was 5600 nM.

Compound `CCOc1ccc(CCN[C@H](CN[C@H](CN)CCCNC(=N)N)Cc2ccc(I)cc2)cc1` has an IC50 [1] of 70 nM, an IC50 [2] of 270 nM and an IC50 [3] of 1340 nM. It also gave an IC50 [4] of 1200 nM.

With `CCOc1ccc(C[C@@H](CN[C@H](CN)CCCNC(=N)N)NCCc2ccc([N+](=O)[O-])cc2)cc1` the IC50 [1] was 460 nM, the IC50 [2] was 250 nM and the IC50 [3] was 14300 nM. It also gave an IC50 [4] of 19600 nM.

`CCOc1ccc(C[C@@H](CN[C@H](CN)Cc2ccc([N+](=O)[O-])cc2)NCCc2ccc(Cl)cc2)cc1` was tested, and the IC50 [1] was 600 nM, the IC50 [2] was 4000 nM and the IC50 [3] was 4100 nM. The IC50 [4] was 5200 nM.
